We go through 5 molecules from patent EP1422230B1 (priority 2002, dated 2004).

Like-named read-outs stand apart in the source and are kept apart here.

The test system of the experiment is rats. Particulars: intramuscular injection.

Under “0.3 µM/kg in sesame oil”, `COC12CCC3(CC1C(C)(O)C(C)(C)C)C1Cc4ccc(OC(=O)CCCCCCCCC(=O)Oc5ccc6c7c5OC5C8(OC)CCC9(CC8C(C)(O)C(C)(C)C)C(C6)N(CC6CC6)CCC759)c5c4C3(CCN1CC1CC1)C2O5` (stereo not shown) displayed a duration of action of 96 h and an onset of action of 2 h.

`CCCCCCCCCCCCCCCC(=O)Oc1ccc2c3c1OC1C4(OC)CCC5(CC4C(C)(O)C(C)(C)C)C(C2)N(CC2CC2)CCC315` (stereo not shown) displayed a duration of action (0.6 µM/kg in sesame oil) of 96 h.

In turn, `CCCCCCCCCC(=O)Oc1ccc2c3c1OC1C4(OC)CCC5(CC4C(C)(O)C(C)(C)C)C(C2)N(CC2CC2)CCC315` (stereo not shown) had a duration of action (0.6 µM/kg in sesame oil) of 96 h.

Molecule `CCC(=O)Oc1ccc2c3c1OC1C4(OC)CCC5(CC4C(C)(O)C(C)(C)C)C(C2)N(CC2CC2)CCC315` (stereo not shown) came in with a duration of action (different doses (0.6, 6, 60 µM/kg), oil solution) of 48 to 60 h.

Take `COC12CCC3(CC1C(C)(O)C(C)(C)C)C1Cc4ccc(OC(=O)CCCCCC(=O)Oc5ccc6c7c5OC5C8(OC)CCC9(CC8C(C)(O)C(C)(C)C)C(C6)N(CC6CC6)CCC759)c5c4C3(CCN1CC1CC1)C2O5` (stereo not shown): under “0.3 µM/kg in sesame oil”, the duration of action worked out at 72 h and the onset of action was 2 h.
